The text below walks through data of patent US10213409B2, “Substituted benzofurans, benzothiophenes, benzoselenophenes and indoles and their use as tubulin polymerisation inhibitors” (Bionomics Limited, priority 2006, dated 2019).

This experiment deals with Human umbilical vein endothelial cells (HUVECs), tumour type activated (Tum). The experiment is described as follows: Proliferation Assay - Activated Endothelium (MTT). It counts as cell-based. The settings on record: comparison of activated and quiescent HUVEC assays, FIGS. 1 and 2, Table 1.

Some compounds may have been tested in ways that are not shown here.

On to combretastatin A4, for which the “potency towards activated (tumour) versus quiescent (normal) endothelial cells” value was “equally potent”.
